Measured values reported in patent US6689753B1, “β sheet breaker peptide analogs that inhibit β pleated sheet formation in amyloid β-peptide” (Axonyx, Inc., priority 1999, dated 2004).

By UniProt entry, the sequences of proteins in these tests, tags left out. Residues count along the entry.
UniProt P05067, 672-711: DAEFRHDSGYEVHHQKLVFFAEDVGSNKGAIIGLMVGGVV

Target: Aβ1-40 (Homo sapiens, UniProt P05067)
Experiment: In vitro amyloid formation assay, thioflavine T fluorescence
Type: biochemical
Conditions: Aβ incubated with peptide, ThT fluorescence, FIG. 5a

Substance: Aβ1-16: short Aβ fragment (DAEFRHDSGYEVHHQK; Amyloid-beta protein 42; UniProt P05067 672-687, looked up, fragment)
- activity in inhibiting amyloid formation (fibrillogenesis): no effect on fibrillogenesis or slightly increased amyloid formation
